pEC50: −log10 of the molar value.
Molecular target: T1, thioredoxin reductase (EhTrxR) (Entamoeba histolytica, UniProt C4LW95)
T1 sequence (C4LW95 1-314): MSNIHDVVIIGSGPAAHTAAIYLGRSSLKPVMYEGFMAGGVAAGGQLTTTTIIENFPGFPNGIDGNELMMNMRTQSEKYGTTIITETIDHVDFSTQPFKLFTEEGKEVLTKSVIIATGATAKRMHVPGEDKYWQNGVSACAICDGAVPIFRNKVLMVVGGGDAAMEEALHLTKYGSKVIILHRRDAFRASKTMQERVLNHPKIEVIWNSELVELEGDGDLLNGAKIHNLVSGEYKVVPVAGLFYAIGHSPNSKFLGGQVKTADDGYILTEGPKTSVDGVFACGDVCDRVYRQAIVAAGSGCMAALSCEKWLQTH
Assay: Trx/DTNB-coupled TNB release assay at […] nm with purified EhTrxR
Assay type: biochemical

`CC[P](CC)(CC)=[Au][S][C@@H]1O[C@H](COC(C)=O)[C@@H](OC(C)=O)[C@H](OC(C)=O)[C@H]1OC(C)=O` [Auranofin] gave a pEC50 of 6.40.

From article PMC5003402 (Journal of structural biology, 2016)
